Experimental data: ChEMBL document CHEMBL3885881, “DrugMatrix”

Species: Rattus norvegicus
Experiment: DrugMatrix - Regimen: Daily Repeat
Assay type: toxicity, organism-based, Sprague-Dawley
Design: regimen Daily Repeat, gender Male, age 6-8 weeks
Conditions: in vivo
[1] = po, 47 mg/kg, 120 h, tissue Plasma, route oral GAVAGE, dose level Low, time 5 day, vehicle .5 % CMC
[2] = po, 500 mg/kg, 72 h, tissue Plasma, route oral GAVAGE, dose level High, time 3 day, vehicle .5 % CMC
[3] = po, 500 mg/kg, 120 h, tissue Plasma, route oral GAVAGE, dose level High, time 5 day, vehicle .5 % CMC
[4] = po, 0 mg/kg, 120 h, tissue Plasma, route oral GAVAGE, dose level Control, time 5 day, […]
[5] = po, 10 mg/kg, 72 h, tissue Plasma, route oral GAVAGE, dose level M1, time 3 day, […]
[6] = po, 10 mg/kg, 120 h, tissue Plasma, route oral GAVAGE, dose level M1, time 5 day, […]
[7] = po, 32 mg/kg, 72 h, tissue Plasma, route oral GAVAGE, dose level M2, time 3 day, […]
[8] = po, 32 mg/kg, 120 h, tissue Plasma, route oral GAVAGE, dose level M2, time 5 day, […]
[9] = po, 64 mg/kg, 72 h, tissue Plasma, route oral GAVAGE, dose level High, time 3 day, […]
[10] = po, 64 mg/kg, 120 h, tissue Plasma, route oral GAVAGE, dose level High, time 5 day, […]
[11] = po, […], 72 h, tissue Plasma, route oral GAVAGE, dose 2.5 mg/Kg, dose level Low, time 3 day
[12] = po, […], 120 h, tissue Plasma, route oral GAVAGE, dose 2.5 mg/Kg, dose level Low, time 5 day
[13] = po, 0 mg/kg, 72 h, tissue Plasma, route oral GAVAGE, dose level Control, time 3 day, vehicle 100 % WATER

With `CN(C)CCCN1c2ccccc2CCc2ccc(Cl)cc21` [CLOMIPRAMINE] the “PLATELET COUNT” value (po, 70 mg/kg, 72 h, tissue Blood, route oral GAVAGE, dose level Low, time 3 day, vehicle 100 % WATER) was 1256.33 x10E3/uL, the “PLATELET COUNT” value (po, 70 mg/kg, 120 h, tissue Blood, route oral GAVAGE, dose level Low, time 5 day, vehicle 100 % WATER) was 1281 x10E3/uL and the GLUCOSE (po, 70 mg/kg, 120 h, tissue Plasma, route oral GAVAGE, dose level Low, time 5 day, vehicle 100 % WATER) was 138.67 mg/dL.
For `O=C(CCCN1CCC(O)(c2ccc(Cl)cc2)CC1)c1ccc(F)cc1` [HALOPERIDOL], the “ERYTHROCYTE COUNT” value (po, 1 mg/kg, 120 h, tissue Blood, route oral GAVAGE, dose level Low, time 5 day, […]) was 5.45 x10E6/uL, the “ERYTHROCYTE COUNT” value (po, 21 mg/kg, 72 h, tissue Blood, route oral GAVAGE, dose level High, time 3 day, […]) was 6.17 x10E6/uL and the “ERYTHROCYTE COUNT” value (po, 21 mg/kg, 120 h, tissue Blood, route oral GAVAGE, dose level High, time 5 day, […]) was 5.96 x10E6/uL.
`CCN(CC)CCNC(=O)c1cc(Cl)c(N)cc1OC` [METOCLOPRAMIDE] was tested, and the “MEAN CORPUSCULAR HEMOGLOBIN CONCENTRATION” value (po, 30 mg/kg, 72 h, tissue Blood, route oral GAVAGE, dose level Low, time 3 day, vehicle .5 % CMC) was 37.2 G/DL.
`OCCOCCN1CCN(C2=Nc3ccccc3Sc3ccccc32)CC1` [QUETIAPINE] was tested, and the PHOSPHORUS (po, 47 mg/kg, 72 h, tissue Plasma, route oral GAVAGE, dose level Low, time 3 day, vehicle .5 % CMC) was 11.4 mg/dL, the “ALKALINE PHOSPHATASE” value [1] was 292.33 u/L and the PHOSPHORUS [1] was 14.33 mg/dL. The “ALKALINE PHOSPHATASE” value [2] was 332 u/L, the CHLORIDE [2] was 101.67 MEQ/L and the “ALKALINE PHOSPHATASE” value [3] was 307.33 u/L. The PHOSPHORUS [3] was 12.27 mg/dL.
For `Cc1nc2n(c(=O)c1CCN1CCC(c3noc4cc(F)ccc34)CC1)CCCC2` [RISPERIDONE], the MONOCYTE (po, 0 mg/kg, 72 h, tissue Blood, route oral GAVAGE, dose level Control, time 3 day, vehicle .5 % CMC) was 1.4%, the MONOCYTE (po, 0 mg/kg, 120 h, tissue Blood, route oral GAVAGE, dose level Control, time 5 day, vehicle .5 % CMC) was 1.67% and the MONOCYTE (po, 22 mg/kg, 120 h, tissue Blood, route oral GAVAGE, dose level High, time 5 day, vehicle .5 % CMC) was 1.33%. The MONOCYTE (po, […], 72 h, tissue Blood, route oral GAVAGE, dose 2.4 mg/Kg, dose level Low, time 3 day, vehicle .5 % CMC) was 1% and the MONOCYTE (po, […], 120 h, tissue Blood, route oral GAVAGE, dose 2.4 mg/Kg, dose level Low, time 5 day, vehicle .5 % CMC) was 4.67%.
`CC/C(=C(\c1ccccc1)c1ccc(OCCN(C)C)cc1)c1ccccc1` [TAMOXIFEN] was tested, and the CHLORIDE (po, 0 mg/kg, 72 h, tissue Plasma, route oral GAVAGE, dose level Control, time 3 day, […]) was 101.83 MEQ/L, the PHOSPHORUS [4] was 10.02 mg/dL and the SODIUM [4] was 144.63 MEQ/L. For the same compound, the CHLORIDE [5] was 104.67 MEQ/L, the PHOSPHORUS [5] was 12.97 mg/dL and the SODIUM [5] was 145.9 MEQ/L. For the same compound, the CHLORIDE [6] was 106 MEQ/L, the PHOSPHORUS [6] was 13.3 mg/dL and the SODIUM [6] was 148.9 MEQ/L. The CHLORIDE [7] was 105.33 MEQ/L, the PHOSPHORUS [7] was 13.4 mg/dL and the SODIUM [7] was 146.47 MEQ/L. The CHLORIDE [8] was 108.67 MEQ/L, the PHOSPHORUS [8] was 12.2 mg/dL and the SODIUM [8] was 152.07 MEQ/L. For the same compound, the CHLORIDE [9] was 104 MEQ/L, the PHOSPHORUS [9] was 9.57 mg/dL and the SODIUM [9] was 147.93 MEQ/L. The CHLORIDE [10] was 101.67 MEQ/L, the PHOSPHORUS [10] was 10.47 mg/dL and the SODIUM [10] was 146.1 MEQ/L. The CHLORIDE [11] was 102.33 MEQ/L, the PHOSPHORUS [11] was 9.97 mg/dL and the SODIUM [11] was 147.73 MEQ/L. The CHLORIDE [12] was 100.33 MEQ/L, the PHOSPHORUS [12] was 10.47 mg/dL and the SODIUM [12] was 145.8 MEQ/L.
`CN[C@H](CC(C)C)C(=O)N[C@H]1C(=O)N[C@@H](CC(N)=O)C(=O)N[C@H]2C(=O)N[C@H]3C(=O)N[C@H](C(=O)N[C@H](C(=O)O)c4cc(O)cc(O)c4-c4cc3ccc4O)[C@H](O)c3ccc(c(Cl)c3)Oc3cc2cc(c3O[C@@H]2O[C@H](CO)[C@@H](O)[C@H](O)[C@H]2O[C@H]2C[C@](C)(N)[C@H](O)[C@H](C)O2)Oc2ccc(cc2Cl)[C@H]1O` [VANCOMYCIN] gave an LIPASE (iv, 25 mg/kg, 72 h, tissue Plasma, dose level Low, time 3 day, vehicle 100 % SALINE) of 9 u/L, an NEUTROPHIL (iv, 25 mg/kg, 120 h, tissue Blood, dose level Low, time 5 day, vehicle 100 % SALINE) of 4% and an LIPASE (iv, 25 mg/kg, 120 h, tissue Plasma, dose level Low, time 5 day, vehicle 100 % SALINE) of 8.67 u/L. For the same compound, the NEUTROPHIL (iv, 160 mg/kg, 72 h, tissue Blood, dose level High, time 3 day, vehicle 100 % SALINE) was 11% and the NEUTROPHIL (iv, 160 mg/kg, 120 h, tissue Blood, dose level High, time 5 day, vehicle 100 % SALINE) was 14.33%.
Compound OXALIPLATIN has an NEUTROPHIL (iv, 0 mg/kg, 120 h, tissue Blood, dose level Control, time 5 day, vehicle 100 % SALINE) of 9.33% and a PHOSPHORUS (iv, 8 mg/kg, 72 h, tissue Plasma, dose level High, time 3 day, vehicle 100 % SALINE) of 10.17 mg/dL.
With THIMEROSAL the HEMOGLOBIN (po, 0 mg/kg, 72 h, tissue Blood, route oral GAVAGE, dose level Control, time 3 day, vehicle 100 % WATER) was 13.43 G/DL, the ALBUMIN [13] was 3.78 G/DL and the GLUCOSE [13] was 169.33 mg/dL. For the same compound, the NEUTROPHIL (po, 1 mg/kg, 120 h, tissue Blood, route oral GAVAGE, dose level Low, time 5 day, vehicle 100 % WATER) was 9.33%, the “ABSOLUTE LYMPHOCYTE” value (po, 10 mg/kg, 72 h, tissue Blood, route oral GAVAGE, dose level High, time 3 day, vehicle 100 % WATER) was 12478.33 CELLS/uL and the “MEAN CORPUSCULAR HEMOGLOBIN CONCENTRATION” value (po, 10 mg/kg, 120 h, tissue Blood, route oral GAVAGE, dose level High, time 5 day, vehicle 100 % WATER) was 39.37 G/DL.
